US20060160789A1 (priority 2005, published 2006)

How the values were obtained:
rats = conditions: cited from earlier work
[1] = test system: patients hospitalized for a laparotomy in the context of digestive surgery; conditions: groups 4 vs 3, per-operative 20 mg nefopam hydrochloride, Mann-Whitney test

Row | Structure (SMILES) | acute tolerance to alfentanil (rats) | over-consumption (variation) of morphine titration, high-dose vs low-dose remifentanil group [1] | over-consumption (variation) of morphine titration, high-dose vs low-dose remifentanil group ([1]; listed as nefopam hydrochloride)
1 | CNC1(c2ccccc2Cl)CCCCC1=O (stereo not drawn) | reduces, but without getting rid of |  | 
2 | CN1CCOC(c2ccccc2)c2ccccc2C1 (stereo not drawn) [nefopam] |  | not significant | statistically non-significant

Like-named read-outs stand apart in the source and are kept apart here.
